For 64 compounds, inhibition results are on record in PubChem BioAssay AID1700 (The Scripps Research Institute Molecular Screening Center, 2009).

A word on the inhibition: it is the change of the read-out against control, counted positive when it falls.

Values joined by “and” are separate entries in the source; they are usually repeats but may differ in a detail not shown here. Equal entries are not always repeated. This is a selection; strong and weak results do not stand in their true shares. Active and inactive are the calls of the source.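 How the source made its calls: active means inhibition above a per-plate limit of that plate's mean compound inhibition plus 3 SD (cut at about 60% in these data); inactive means the rest.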

The assay is described as follows: KLF5 expression inhibitors, primary screen, DLD-1 cells, luminescence (AID 1700).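 Further: 0% = DMSO wells and 100% = LY294002 at 200 µM; higher means less KLF5 promoter-driven luciferase light.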 To be noted: DLD-1 KLF5 promoter-luciferase reporter, at 5 µM, stronger effect = higher value.
Take `O=[N+]([O-])c1ncn(CCn2ncnc2[N+](=O)[O-])n1`: the inhibition is inactive: -10.7%.
Next, `CC(C)(C)C(=O)NC(Sc1ccncn1)C(Cl)(Cl)Cl` (centres undefined): inactive: -0.93%; `O=C(O)CNc1ccc([As](=O)(O)O)cc1`: inactive: -7.72%; `O=[N+]([O-])c1cccc(NC2=NCC(CBr)S2)c1` (centres undefined): inactive: -4.98%.
With `O=C(Nc1cc([As](=O)(O)O)ccc1O)c1ccccc1`, the inhibition is inactive: -21.6%.
The result for `CCN(/C(=N/P(=O)(N1CCOCC1)N1CCOCC1)N1CCOCC1)c1ccc(OC)cc1` reads inactive: 12.2%; that for `C[N+]1=C2C=CC=CC=C2SC12C([N+](=O)[O-])=CC([N+](=O)[O-])=C[C-]2[N+](=O)[O-]` (centres undefined), inactive: 27.4%; that for `Nc1ccc([As](=O)(O)c2ccc(N)cc2)cc1`, inactive: -2.76%.
With `CC1CCN(C(=O)Oc2c(Cl)cc(Cl)c3cccnc23)CC1`, the inhibition is inactive: -20.2%.
As for `CN(C)C(=O)OCCc1n(C)cc[n+]1C`, the inhibition was inactive: -11%.
With `CC(C)=N/N=C(\N)N[N+](=O)[O-]`, the inhibition is inactive: -19.9%.
The result for `COc1ccc(C2=NCC(CBr)S2)cc1` (centres undefined) reads inactive: -17.2%; that for `O=[N+]([O-])c1cc([N+](=O)[O-])c(CCNc2ccccc2)c([N+](=O)[O-])c1`, inactive: -25.6%; that for `CCc1nc2c(n1)c1c(non1O)c1c2no[n+]1[O-]`, inactive: 3.42%.
In the case of `Cc1ccc(NP(=O)(Oc2ccccc2)Oc2ccccc2)nc1`, the inhibition is inactive: 6.55%.
The result for `CC(=O)N1C2C3N(C(C)=O)C1C1N(C(C)=O)C(C(N1C(C)=O)N3C(C)=O)N2C(C)=O` reads inactive: -13.9%; that for `O=[N+]([O-])c1cccc2n[nH]nc12`, inactive: -24.5%; that for `O=C(NC(Sc1ccncn1)C(Cl)(Cl)Cl)c1ccccc1` (centres undefined), inactive: 18.2%.
Regarding `Cc1c2non([O-])c-2c(C)[n+](=O)[n+]1[O-]`, the inhibition was inactive: -15.3%.
The result for `Oc1ccccc1CNc1ccccn1` reads inactive: -12%; that for `Nc1cc(N)c2nonc2c1[N+](=O)[O-]`, inactive: -25.8%.
Next, `CC(C)CC(=O)NC(Sc1ccc(Cl)cc1)C(Cl)(Cl)Cl` (centres undefined): inactive: -9.96%.
The result for `Cc1ccc(N/C(=N/P(=O)(N2CCOCC2)N2CCOCC2)N2CCOCC2)cc1` reads inactive: -0.58%.
In the case of `NC(=O)c1cc([N+](=O)[O-])cc([N+](=O)[O-])c1N`, the inhibition was inactive: -8.01%.
The result for `CN1CCCC(OC(=O)C(c2ccccc2)c2ccccc2)C1` (centres undefined) reads inactive: -11.2%.
The result for `Clc1ccc(Cl)c(NC2=NCC(CBr)S2)c1` (centres undefined) reads inactive: -8.49%; that for `Cc1ccc(OP(=O)(Nc2nccs2)Oc2ccc(C)cc2)cc1`, inactive: -15.7%; that for `COc1ccccc1OP(=O)(Nc1ccc(C)cn1)Oc1ccccc1OC`, inactive: -34.3%.
In the case of `O=[N+]([O-])c1cc([N+](=O)[O-])c(CCN2CCOCC2)c([N+](=O)[O-])c1`, the inhibition was inactive: -9.29%.
Next, `Nc1cccc2ccc([As](=O)(O)O)cc12`: inactive: 0.23%; `CCN(N=Nc1nonc1N)c1nonc1N`: inactive: -14.8%; `O=P(Nc1nc2ccc(Cl)cc2s1)(c1ccccc1)c1ccccc1`: inactive: -32.4%.
As for `CC(=O)Nc1ccc([As](=O)(O)O)cc1`, the inhibition was inactive: -21.2%.
For `O=C(O)c1ccccc1[As](=O)(O)O`, the inhibition was inactive: -27.5%.
For `Cc1ccc(NP(=O)(Oc2ccccc2F)Oc2ccccc2F)nc1`, the inhibition is inactive: -3.53%.
The result for `Cc1cc(SC(NC(=O)c2ccc(F)cc2)C(Cl)(Cl)Cl)ncn1` (centres undefined) reads inactive: -1.36%.
The result for `CCOP(=O)(Nc1ccccc1)OCC` reads inactive: 4.25% and inactive: -16.5%.
Next, `CCC(=O)N1C2C3N(C(=O)CC)C1C1N(C(=O)CC)C(C(N1C(=O)CC)N3C(=O)CC)N2C(=O)CC`: inactive: 3.79%; `O=C(OC1CN2CCC1CC2)c1ccccc1` (centres undefined): inactive: -46%.
Take `CC(=O)NC(SC(=S)N(CC(C)C)CC(C)C)C(Cl)(Cl)Cl` (centres undefined): the inhibition was inactive: 1.1%.
For `Cc1ccc(OP(=O)(Nc2ccccn2)Oc2ccc(C)cc2)cc1`, the inhibition is inactive: -4.03%.
The result for `COC(=O)c1cc2c(s1)N=C(c1ccccc1)N(C)P2(=O)N1CCOCC1` (centres undefined) reads inactive: -8.45%.
Regarding `O=c1c2cc([N+](=O)[O-])ccc2[nH]c2c([N+](=O)[O-])cc([N+](=O)[O-])cc12`, the inhibition was inactive: -9.76%.
On to `CN(C)C(=O)Oc1noc2ccccc12`, for which the inhibition was inactive: -44.2%.
Next, `Cc1ccccc1OP(=O)(Nc1ccccn1)Oc1ccccc1C`: inactive: 9.11%.
The result for `Cc1ccc(NP(=O)(Oc2cccc(C)c2)Oc2cccc(C)c2)nc1` reads inactive: -4.26%.
As for `CCOC(=O)NC(Sc1ccccc1)C(Cl)(Cl)Cl` (centres undefined), the inhibition was inactive: -37.5%.
Take `c1ccc(-c2nn[nH]n2)c(-c2nn[nH]n2)c1`: the inhibition was inactive: -19.7%.
`O=C(NC1CCS(=O)(=O)C1)NP(=S)(Oc1ccccc1)Oc1ccccc1` (centres undefined): the inhibition was inactive: -21.1%.
Next, `CCNC(=S)/N=C(\N)N[N+](=O)[O-]`: inactive: -4.54%.
Consider `CC(=O)c1ccc(N2CC2c2ccncc2)cc1` (centres undefined), for which the inhibition was inactive: -0.15%.
For the compound `CC(=O)Nc1ccc(Oc2c([N+](=O)[O-])cc([N+](=O)[O-])cc2[N+](=O)[O-])cc1`, the inhibition was inactive: -6.79%.
Next, `CC(=O)Nc1ccc([As](=O)(O)O)c(O)c1`: inactive: -3.48%; `CCOc1ccc(C2=NCC(CBr)S2)cc1` (centres undefined): inactive: -20.9%; `O=P1(Nc2nc3ccc(Cl)cc3s2)COc2ccccc2O1` (centres undefined): inactive: -20.5%.
The result for `CC(C)(C)C(=O)NC(Sc1ccccc1)C(Cl)(Cl)Cl` (centres undefined) reads inactive: -7.2%; that for `O=P(Nc1nccs1)(c1ccccc1)c1ccccc1`, inactive: -4.87%.
Next, `CC(C)C(=O)NC(Sc1ccccc1)C(Cl)(Cl)Cl` (centres undefined): inactive: -16.4%.
Turning to `c1nnnn1CCn1cnnn1`, the inhibition was inactive: -0.38%.
The result for `O=[As](O)(c1ccccc1)c1ccc(O)cc1` reads inactive: -22.3%; that for `CC(=O)NC(SC(=S)N(C)C)C(Cl)(Cl)Cl` (centres undefined), inactive: -2.5%.
The result for `O=[N+]([O-])c1ncn(CCn2cnc([N+](=O)[O-])n2)n1` reads inactive: -24.2%; that for `O=[N+]([O-])c1ccc(O)c(/C=N/Nc2ccc([N+](=O)[O-])cc2[N+](=O)[O-])c1`, inactive: -17.3%; that for `O=C(OC1CN2CCC1CC2)c1cccc(Cl)c1` (centres undefined), inactive: -19.3%.
